Measurements from paper doi:10.1101/2025.01.21.633066.

Amino acid sequences for entries named in this document (tags omitted). Residues count along the entry.
UniProt P48061, 22-89: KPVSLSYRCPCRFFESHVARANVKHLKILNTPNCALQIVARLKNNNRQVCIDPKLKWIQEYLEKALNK

Target: solCXCR7
Assay: BLI

Substance: SDF1α (from UniProt P48061-2 22-89) (ligand)
- Kd: 8.1 nM
